Target: μ opioid receptor (Rattus norvegicus, UniProt P33535)
Test: [35S]GTPγS binding assay in rat brain membranes
Assay type: biochemical

The chains behind the UniProt entries cited, without tags or fusion partners.
UniProt P33535, whole entry: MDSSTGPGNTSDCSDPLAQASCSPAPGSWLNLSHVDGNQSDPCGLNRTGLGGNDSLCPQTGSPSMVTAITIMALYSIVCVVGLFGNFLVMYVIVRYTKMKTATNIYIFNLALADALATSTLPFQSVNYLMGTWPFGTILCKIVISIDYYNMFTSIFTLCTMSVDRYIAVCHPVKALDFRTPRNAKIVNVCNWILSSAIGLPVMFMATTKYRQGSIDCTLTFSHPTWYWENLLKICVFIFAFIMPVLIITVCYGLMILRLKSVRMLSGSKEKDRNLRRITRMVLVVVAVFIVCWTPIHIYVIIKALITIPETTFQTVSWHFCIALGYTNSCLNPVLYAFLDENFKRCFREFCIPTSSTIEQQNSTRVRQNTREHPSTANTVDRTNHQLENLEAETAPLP

Substance: D-Ala^2,Me-Phe^4,Gly-ol^5]enkephalin [DAMGO]
- ED50, stimulation of [35S]GTPγS binding: 309 ± 35 nM
- Effect of CTAP (μ antagonist) on agonist-stimulated [35S]GTPγS binding (agonist 1 μM, CTAP 1 and 10 μM): antagonism of stimulatory actions
- Effect of NTI (δ antagonist) on agonist-stimulated [35S]GTPγS binding (agonist 1 μM, NTI 10 nM): no significant effect
- Effect of naloxone on agonist-stimulated [35S]GTPγS binding (agonist 1 μM, naloxone 1 μM): prevented by naloxone
- Effect of nor-BNI (κ antagonist) on agonist-stimulated [35S]GTPγS binding (agonist 1 μM, nor-BNI 100 nM): no significant effect
- Emax, stimulation of [35S]GTPγS binding (percentage of basal activity (defined as 100%)): 185 ± 4%

— publication PMC2954314 (European Journal of Pharmaceutical Sciences, 2010)
